# Assay results published in PubChem BioAssay AID720642 (The Scripps Research Institute Molecular Screening Center, 2013).
# Chains of the proteins cited; added tags and fusions are not shown.
# UniProt P35372, whole entry, looked up: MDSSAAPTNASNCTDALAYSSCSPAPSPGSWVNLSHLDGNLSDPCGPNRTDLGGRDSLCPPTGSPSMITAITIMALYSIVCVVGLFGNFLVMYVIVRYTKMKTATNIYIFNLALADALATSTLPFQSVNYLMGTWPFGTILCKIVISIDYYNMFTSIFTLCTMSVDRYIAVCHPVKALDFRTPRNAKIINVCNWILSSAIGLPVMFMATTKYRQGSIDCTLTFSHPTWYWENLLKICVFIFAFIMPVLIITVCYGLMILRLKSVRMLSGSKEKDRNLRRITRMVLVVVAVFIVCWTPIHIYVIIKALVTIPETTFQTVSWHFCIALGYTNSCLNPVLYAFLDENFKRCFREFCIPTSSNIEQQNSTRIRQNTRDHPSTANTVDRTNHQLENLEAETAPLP
# Active and inactive are the calls of the source.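 Rule for the calls: active = EC50 activation potency at or below 10 µM in this mu opioid counterscreen; inactive = EC50 above 10 µM or never reaching half activation.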
# Biological target: Mu-type opioid receptor (Homo sapiens) (UniProt P35372)
# Assay: mu opioid receptor activation potency – cell-based, luminescence, dose response, powder samples, counter-screen for mouse HTR2A agonist project, late-stage follow-up (AID 720642)
# Details: U2OS OPRM1 beta-arrestin complementation
smiles,measurement,value
COC(=O)C1=C(Cn2cnc3ccccc32)NC(=O)NC1c1cc(C)ccc1C (stereo unspecified),EC50,inactive: > 92.5 µM
